Results on 1 molecule are retold here after PubChem BioAssay AID652031 (The Scripps Research Institute Molecular Screening Center, 2013).

Chains of the proteins cited; added tags and fusions are not shown.
UniProt P41145, whole entry: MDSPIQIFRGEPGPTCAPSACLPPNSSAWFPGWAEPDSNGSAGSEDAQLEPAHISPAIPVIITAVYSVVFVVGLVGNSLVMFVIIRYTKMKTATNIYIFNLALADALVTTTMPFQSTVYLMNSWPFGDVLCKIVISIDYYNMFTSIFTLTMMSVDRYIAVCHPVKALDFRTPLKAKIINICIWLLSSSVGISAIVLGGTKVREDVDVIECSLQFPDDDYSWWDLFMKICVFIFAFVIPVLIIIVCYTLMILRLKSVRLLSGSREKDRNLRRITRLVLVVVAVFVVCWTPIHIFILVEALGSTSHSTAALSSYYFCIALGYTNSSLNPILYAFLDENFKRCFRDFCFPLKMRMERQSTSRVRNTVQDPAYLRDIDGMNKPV

This is a selection; strong and weak results do not stand in their true shares. Calls of active or inactive are those of the source. Rule as the data show it: active = inhibition above about 50%; inactive = the rest.

The target in this assay is Kappa-type opioid receptor (Homo sapiens) (UniProt P41145). Kind of assay: antagonists of human kappa opioid receptor OPRK1, Maybridge library (AID 652031). The note with it: OPRK1 cells, antagonist mode, fluorescence readout; at 9 µM; active compounds read high.
For the molecule `O=[N+]([O-])C1([N+](=O)[O-])COCOC1`, the inhibition is inactive: -8.2%.

One may read the inhibition as the drop in the measured response relative to a control, in per cent.
